{
  "source": "patent US20160256560A1",
  "about": "“Environmentally Sensitive Compositions” (priority 2010, published 2016)",
  "experiment": "pH-dependence of insertion into lipid bilayer (pKa)",
  "data": [
    {"compound": "CC[C@H](C)[C@H](NC(=O)[C@@H]1CCCN1C(=O)[C@H](CC(N)=O)NC(=O)[C@H](CC(=O)O)NC(=O)[C@H](CCC(=O)O)NC(=O)[C@H](CC(=O)O)NC(=O)[C@H](CC(=O)O)NC(=O)[C@@H](N)CC(=O)O)C(=O)N[C@@H](Cc1ccc(O)cc1)C(=O)N[C@@H](Cc1c[nH]c2ccccc12)C(=O)N[C@@H](C)C(=O)N[C@@H](CCCNC(=N)N)C(=O)N[C@@H](Cc1ccc(O)cc1)C(=O)N[C@@H](C)C(=O)N[C@@H](Cc1c[nH]cn1)C(=O)N[C@@H](Cc1c[nH]c2ccccc12)C(=O)N[C@@H](CC(C)C)C(=O)N[C@@H](Cc1ccccc1)C(=O)N[C@H](C(=O)N[C@H](C(=O)N1CCC[C@H]1C(=O)N[C@@H](CC(C)C)C(=O)N[C@@H](CC(C)C)C(=O)N[C@@H](CC(C)C)C(=O)N[C@@H](CC(C)C)C(=O)N[C@@H](Cc1c[nH]cn1)C(=O)NCC(=O)N[C@@H](C)C(=O)N[C@@H](CC(C)C)C(=O)N[C@@H](CC(C)C)C(=O)N[C@H](C(=O)N[C@@H](CC(N)=O)C(=O)N[C@@H](C)C(=O)N[C@@H](CC(N)=O)C(=O)N[C@@H](CCC(=O)O)C(=O)N[C@@H](CS)C(=O)N[C@H](C(=O)O)[C@@H](C)O)C(C)C)[C@@H](C)O)[C@@H](C)O", "values": [
      {"measurement": "Notes: pKa of Yana's same variant (H2N2)", "value": "pKa-5"}
    ]}
  ]
}
